According to PubChem BioAssay AID624172 (National Center for Advancing Translational Sciences (NCATS), 2012):
Only a part is listed here, and it is no random draw. Active and inactive are the calls of the source. Calls come from the whole dose curve; as a rule, active = well fitted activation curve with a large enough effect; inconclusive = small, poorly fitted or top-dose-only effect; inactive = no such curve, though single readings can be large or run the other way.

Amino acid sequences for entries named in this document (tags omitted). A change or cut given only in a name is not applied to a line headed by its entry.
UniProt P43220, whole entry, stated change not applied: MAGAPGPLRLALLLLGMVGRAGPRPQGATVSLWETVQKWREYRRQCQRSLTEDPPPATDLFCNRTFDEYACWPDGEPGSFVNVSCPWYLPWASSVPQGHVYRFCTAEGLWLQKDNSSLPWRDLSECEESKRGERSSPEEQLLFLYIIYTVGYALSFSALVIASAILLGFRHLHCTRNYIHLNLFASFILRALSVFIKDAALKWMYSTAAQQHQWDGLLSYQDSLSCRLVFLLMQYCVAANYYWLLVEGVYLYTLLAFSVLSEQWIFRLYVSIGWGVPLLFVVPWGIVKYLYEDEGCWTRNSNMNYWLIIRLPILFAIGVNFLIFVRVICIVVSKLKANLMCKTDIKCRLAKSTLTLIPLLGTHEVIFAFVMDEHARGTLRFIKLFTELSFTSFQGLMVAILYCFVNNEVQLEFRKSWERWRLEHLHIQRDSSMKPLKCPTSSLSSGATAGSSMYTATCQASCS

Target: Glucagon-like peptide 1 receptor (Homo sapiens) (UniProt P43220)
Assay: qHTS of GLP-1 Receptor Agonists; note: % of control where 0% means no effect
Conditions: HEK293 GLP-1R CRE-luciferase, luminescence, 4-6 h, cells express a hypersensitive GLP-1R form; at 45.6 µM (top of the series) unless noted
Excerpt: The overall goal of this project was to develop a novel assay for discovering small molecule ligands for class B1 G protein-coupled receptors (GPCRs). Very few agonists (or inverse agonists) with generally weak activity for this entire group of physiologically important receptors are known to date. To establish proof-of-principle that this critical bottleneck can be overcome with a suitable screening approach, our studies focused on the class B1 receptor for glucagon-like peptide-1 (GLP-1R), a potential therapeutic target for diabetes and neurodegenerative disease.
The assay was developed in a "mix and measure" format using a cell-based functional readout. Toward this goal, stably transfected HEK293 cell clones were established that co-express (i) a cAMP-responsive luciferase reporter gene, and (ii) GLP-1Rs that upon ligand interaction either stimulate (agonists) or inhibit (inverse agonists) luciferase activity. In different cell lines to be used for screening, expressed GLP-1Rs are specifically optimized for high sensitivity detection of either weak agonists (hypersensitive receptor) or inverse agonists (constitutively active receptor mutant). In addition, control cell lines were developed that express either the cAMP-responsive reporter gene without recombinant GLP-1Rs (enabling initial exclusion of GLP-1R independent effects of candidate probes), or the reporter gene together with wild type GLP-1Rs (for confirmation of probe activity at this receptor), or the reporter gene in combination with the constitutively active orphan receptor GPR119 (enabling initial exclusion of GLP-1R independent inhibitory effects of candidate inverse agonists).
To that end, this assay was optimized for 1536-well format and screened against the MLSMR.
NIH Molecular Libraries Probe Production Network [MLPCN]
NIH Chemical Genomics Center [NCGC]
PI Name: Martin Beinborn, Tufts Medical Center
In a white solid 1536-well plate, 6 uL of cells are dispensed in DMEM without phenol red, 10% Nu serum, and 1% pen-strep medium. The plates are then incubated for 12 hours at 37 deg C at 5% CO2 before 23 nL of compounds are added. After a 4-6 hr incubation at37 deg C and 5% CO2, 3 uL of detection reagent are added and after a 12 min incubation at RT, a luminescent read is obtained on the ViewLux.

Row | Compound | activation
1 | Cc1cccc([N+](=O)[O-])c1[N+](=O)[O-] | inactive: 0.496% [at 96 µM]
2 | CCOC(=O)c1ccc(NP(C)(=O)Oc2ccc(F)cc2)cc1 (stereo not given) | inactive: -0.324%
3 | COc1ccc(OP(C)(=O)Nc2ccc(SC(F)(F)F)cc2)cc1 (stereo not given) | inactive: 17.1%
4 | Cc1c([N+](=O)[O-])cc([N+](=O)[O-])c(Br)c1[N+](=O)[O-] | inactive: 0.533%
5 | CCN(CC)CCCOC(=O)C(O)(c1ccccc1)C1CCCCC1 (stereo not given) | inactive: 1.01%
6 | CP(=O)(Nc1ccccc1)Oc1ccc(F)cc1 (stereo not given) | inactive: 1.32%
7 | CCCCCOc1ccc(NP(C)(=O)Oc2ccc(Cl)cc2Cl)cc1 (stereo not given) | inactive: -3.69%
8 | CP(=O)(Nc1ccccc1F)Oc1ccccc1 (stereo not given) | inactive: -0.11%
9 | CC(C)c1ccc(OP(C)(=O)Nc2ccc(SC(F)(F)F)cc2)cc1 (stereo not given) | inactive: -3.94%
10 | O=C(OCCN1CCN(CCOCc2ccccc2)CC1)C(O)(c1ccccc1)c1ccccc1 | inactive: -4.39%
11 | CCOP(=O)(CC)Oc1ccc([N+](=O)[O-])cc1 (stereo not given) | inactive: -2.99%
12 | CP(=O)(Nc1ccc(SC(F)(F)F)cc1)Oc1ccc(F)cc1 (stereo not given) | inactive: 0.909%
13 | CCOP(C)(=S)SCC(=O)NC(C)(CC)C(=O)O (stereo not given) | inactive: -2.42%
14 | CP(=O)(Nc1ccc2c(c1)OCCO2)Oc1ccccc1 (stereo not given) | inactive: -5.22%
15 | Cc1ccccc1NP(C)(=O)Nc1ccccc1C | inactive: -3.09%
16 | O=[N+]([O-])c1cc([N+](=O)[O-])c(C(F)(F)F)c([N+](=O)[O-])c1O | inactive: 4.78%
17 | COc1ccc(OP(C)(=O)Nc2cccc(Br)c2)cc1 (stereo not given) | inactive: 6.58%
18 | CN(C)CCOC(=O)C(O)(c1ccccc1)C1CCCCC1 (stereo not given) | inactive: 2.33%
19 | COc1ccc(NP(C)(=O)Oc2ccccc2OC)cc1 (stereo not given) | inactive: 1.76%
20 | O=[N+]([O-])c1ccc(OP2(=O)COCCO2)cc1 (stereo not given) | inactive: 5.31%
21 | Cc1cc(-c2cccc3ccccc23)c(C)cn1.O=[N+]([O-])c1cc([N+](=O)[O-])c(O)c([N+](=O)[O-])c1 | inactive: 1.65%
22 | Cc1c(C(c2ccc3c(c2)OCO3)c2c(C)n(C)n(-c3ccccc3)c2=O)c(=O)n(-c2ccccc2)n1C.O=[N+]([O-])c1cc([N+](=O)[O-])c(O)c([N+](=O)[O-])c1 | inactive: -2.58%
23 | Nc1ccc2c(ccc3cccnc32)n1.O=[N+]([O-])c1cc([N+](=O)[O-])c(O)c([N+](=O)[O-])c1 | inactive: 4.37%
24 | CCOC(=O)c1ccc(NP(C)(=O)Oc2ccc(Cl)cc2)cc1 (stereo not given) | inactive: 12%
25 | CP(=O)(OC12CC3CC(CC(C3)C1)C2)OC12CC3CC(CC(C3)C1)C2 | inactive: -3.75%

Row | Compound | activation
26 | CC(C)OP(=O)(F)OC(C)C | inactive: -2.49%
27 | C/C1=C2N=C(/C=C3N=C(/C(C)=C4\[N-][C@@](C)([C@H]5N=C1[C@@](C)(CCC(=O)NC[C@H](C)OP(=O)([O-])O[C@@H]1[C@H](O)[C@H](n6cnc7cc(C)c(C)cc76)O[C@@H]1CO)[C@@H]5CC(N)=O)[C@](C)(CC(N)=O)[C@H]4CCC(N)=O)[C@@](C)(CC(N)=O)[C@@H]\3CCC(N)=O)C(C)(C)[C@@H]/2CCC(N)=O.[C-]#N.[Co+3] | inactive: -0.0013% [at 19.8 µM]
28 | COc1ccc(OP(C)(=O)Nc2ccc(Br)cc2)cc1 (stereo not given) | inactive: 7.46%
29 | CCN(CC)CC(O)COC(=O)C(O)(c1ccccc1)C1CCCCC1 (stereo not given) | inactive: -11.6%
30 | N#[O+].[C-]#N.[C-]#N.[C-]#N.[C-]#N.[C-]#N.[Fe+2].[Na+].[Na+] | inactive: 8.95%
31 | OCCSCCO | inactive: 2.52%
32 | O=C(OCCCN1CCCC1)C(O)(c1ccccc1)C1CCCCC1 (stereo not given) | inactive: -18.4%
33 | COc1ccccc1OP(C)(=O)Nc1c(C)n(C)n(-c2ccccc2)c1=O (stereo not given) | inactive: -8.93%
34 | CCc1ccc(OP(C)(=O)Nc2cccnc2)cc1 (stereo not given) | inactive: -0.572%
35 | CP(=O)(Oc1ccccc1)N1CCOC1=O (stereo not given) | inactive: -2.09%
36 | COc1ccccc1OP(C)(=O)Nc1ccccc1Br (stereo not given) | inactive: 0.4%
37 | CC(C)(C)c1ccc(OP(C)(=O)O)cc1 | inactive: -14.1%
38 | CP(=O)(Nc1ccc(Cl)cc1)Oc1ccc(F)cc1 (stereo not given) | inactive: 3.59%
39 | CN(C)C(=O)c1c([N+](=O)[O-])cc([N+](=O)[O-])cc1[N+](=O)[O-] | inactive: -7.13%
40 | COc1ccccc1OP(C)(=O)Nc1ccc(Br)cc1 (stereo not given) | inactive: 10.1%
41 | COc1ccc(OP(C)(=O)Nc2ccccn2)cc1 (stereo not given) | inactive: 0.628%
42 | CN(C)CCOC(=O)C(O)(c1ccccc1)C1CCCC1 (stereo not given) | inactive: -1.44%
43 | Cc1c(NP(C)(=O)Oc2ccc(C(C)C)cc2)c(=O)n(-c2ccccc2)n1C (stereo not given) | inactive: 3.62%
44 | O=[N+]([O-])c1cc([N+](=O)[O-])c(Nc2ccccn2)c([N+](=O)[O-])c1 | inactive: -4.25%
45 | COc1ccccc1OP(C)(=O)Nc1ccc(C)cc1C (stereo not given) | inactive: 7.87%
46 | CP(=O)(Nc1ccccn1)Oc1ccccc1 (stereo not given) | inactive: -0.364%
47 | CCc1ccc(OP(C)(=O)O)cc1 | inactive: 3.88%
48 | Cc1cc(C)cc(OP(C)(=O)Nc2cccc(C(F)(F)F)c2)c1 (stereo not given) | inactive: 7.7%
49 | COc1ccccc1OP(C)(=O)Nc1ccc(C)c(C)c1 (stereo not given) | inactive: -1.12%
50 | COc1ccc(OP(C)(=O)Nc2ccccc2Br)cc1 (stereo not given) | inactive: 13.9%
